# Binding of CDR-mutated scFvs to a peptide of the spike HR2 region

The target is the same throughout: PDVDLGDISGINAS, from the HR2 region of SARS-CoV-2 spike.

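The starting antibody came from a phage panning campaign against this peptide. Library AAYL52 holds single substitutions and randomly drawn double and triple substitutions in the CDRs. The assay is AlphaSeq: two haploid yeast populations carry antibody and antigen on their surface. Mating (16 h, 30 °C) was followed by selection of diploids and sequencing of their barcodes. The ratio of observed to expected reads was calibrated, replicate by replicate, on BCL2-family standards whose Kd was known from biolayer interferometry. The assay was run in three technical replicates.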

Ab-95 is the parent antibody, in scFv form: VH, then a (GGGGS)3 linker, then VL. The heavy chain is unchanged in all variants.
VH: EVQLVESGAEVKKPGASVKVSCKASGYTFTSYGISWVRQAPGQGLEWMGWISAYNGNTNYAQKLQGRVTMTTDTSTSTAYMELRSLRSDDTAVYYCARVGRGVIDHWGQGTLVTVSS
VL: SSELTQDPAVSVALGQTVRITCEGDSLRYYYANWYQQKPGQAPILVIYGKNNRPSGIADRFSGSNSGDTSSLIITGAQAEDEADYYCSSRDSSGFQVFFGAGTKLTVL

The whole VL of each variant is written out. All variants listed here change R28 of the VL, counted from its first residue. The Kd shown is the geometric mean over detected replicates; a lower Kd is a better binder. "nd" means that the variant was in the library but no mating with the target was seen in any replicate; the authors take this as a sign of poor binding, and no number exists. Background: pairings of library AAYL52 with three empty control strains gave a value in 28% of cases (median 8.2 µM, 5th percentile 800 nM). Values in that range, when seen in few replicates, are hard to tell from nonspecific mating. For each scFv, signals with the empty controls are counted beside the result. In this assay the parent's reference entry averaged 200 nM; its copy inside this library read 180 nM.

The variant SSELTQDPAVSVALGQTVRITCEGDSIIYYYANWYQQKPGQAPILVIYGLNNRPSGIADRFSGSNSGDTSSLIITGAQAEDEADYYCSSRDSSGFQVFFGAGTKLTVL gave 1.1 µM (2 of 3 replicates; controls 1 of 9). The variant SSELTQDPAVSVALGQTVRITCEGDSSQYYYANWYQQKPGQAPILVIYGKNNRPSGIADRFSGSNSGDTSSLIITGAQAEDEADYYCSSRTSSGFQVFFGAGTKLTVL gave 12 µM (1 of 3 replicates; controls 0 of 9). The variant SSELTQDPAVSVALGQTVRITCEGDSLMYYYANWYQQKPGQAPILVIYEKNNRGSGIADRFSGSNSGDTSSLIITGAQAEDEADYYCSSRDSSGFQVFFGAGTKLTVL gave 800 nM (3 of 3 replicates; controls 0 of 9). The variant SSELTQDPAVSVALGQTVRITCEGDSLDYYYANWYQQKPGQAPILVIYGKWNRKSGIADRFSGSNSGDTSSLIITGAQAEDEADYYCSSRDSSGFQVFFGAGTKLTVL gave 8.5 µM (2 of 3 replicates; controls 5 of 9). The variant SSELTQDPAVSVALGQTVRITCEGDSLIYYYANWYQQKPGQAPILVIYGKNPRPSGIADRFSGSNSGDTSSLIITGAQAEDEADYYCSSRDSSGFQVFFGAGTKLTVL showed 11 µM (1 of 3 replicates; controls 4 of 9). With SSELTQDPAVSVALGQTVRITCEGDSFSYYYANWYQQKPGQAPILVIYGKKNRPSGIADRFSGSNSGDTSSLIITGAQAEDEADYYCSSRDSSGFQVFFGAGTKLTVL the result was 22 µM (2 of 3 replicates; controls 1 of 9). For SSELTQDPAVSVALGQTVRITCEGDSLGYYYANWYQQKPGQAPILVIYGKNNWPSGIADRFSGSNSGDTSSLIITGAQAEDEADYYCSSRDSVGFQVFFGAGTKLTVL, the assay gave 5.1 µM (1 of 3 replicates; controls 2 of 9).

With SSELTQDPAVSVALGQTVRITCEGDSLVYYYANWYQQKPGQAPILVIYGKNNEPSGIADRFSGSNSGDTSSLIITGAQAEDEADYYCSSRDSSGFQVMFGAGTKLTVL the result was nd (0 of 3 replicates; controls 0 of 9). With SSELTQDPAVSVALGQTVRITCEGDSLHYYYLNWYQQKPGQAPILVIYGKNNRPSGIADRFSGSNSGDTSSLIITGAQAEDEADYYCSSRDISGFQVFFGAGTKLTVL the result was nd (0 of 3 replicates; controls 4 of 9). The variant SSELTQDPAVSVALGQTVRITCENDSLDYYYANWYQQKPGQAPILVIYGKNNRPSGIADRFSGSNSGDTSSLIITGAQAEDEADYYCSSRDSSGPQVFFGAGTKLTVL showed 20 µM (1 of 3 replicates; controls 4 of 9). The variant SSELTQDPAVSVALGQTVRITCEGDSLIYYYANWYQQKPGQAPILVIYGKNNRPSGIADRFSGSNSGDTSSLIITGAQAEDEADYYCSSRYNSGFQVFFGAGTKLTVL showed 3.7 µM (3 of 3 replicates; controls 2 of 9). The variant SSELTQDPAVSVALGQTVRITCEGDMLLYYYANWYQQKPGQAPILVIYGKNNRPSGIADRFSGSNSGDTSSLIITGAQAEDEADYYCSSRDSSGFLVFFGAGTKLTVL gave 31 µM (1 of 3 replicates; controls 4 of 9). The variant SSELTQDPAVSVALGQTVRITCEGDSLGYYYANWYQQKPGQAPILVIYGKNNSPSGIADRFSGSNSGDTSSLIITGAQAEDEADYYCSSRDSSGFQVLFGAGTKLTVL showed nd (0 of 3 replicates; controls 0 of 9). The variant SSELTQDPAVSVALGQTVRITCEGDSLCYYYANWYQQKPGQAPILVIYGKNNRPSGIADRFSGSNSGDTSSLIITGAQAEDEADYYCSSQDSSGFMVFFGAGTKLTVL showed 1.0 µM (1 of 3 replicates; controls 1 of 9).

The first 2 entries again:

VL	Kd (apparent)	replicates with signal	signal with controls
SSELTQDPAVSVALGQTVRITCEGDSIIYYYANWYQQKPGQAPILVIYGLNNRPSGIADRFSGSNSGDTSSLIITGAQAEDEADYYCSSRDSSGFQVFFGAGTKLTVL	1.1 µM	2/3	1/9
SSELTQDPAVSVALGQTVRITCEGDSSQYYYANWYQQKPGQAPILVIYGKNNRPSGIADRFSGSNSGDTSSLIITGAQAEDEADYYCSSRTSSGFQVFFGAGTKLTVL	12 µM	1/3	0/9

Reference: Engelhart et al. 2022, doi:10.1038/s41597-022-01779-4. File: FLAb, binding data.